According to PMC4160570, “Effects of proarrhythmic drugs on relaxation time and beating pattern in rat engineered heart tissue” (Basic Research in Cardiology, 2014):

Test system: rat engineered heart tissue (EHT)
Test: Video-optical analysis of contractile parameters of spontaneously beating rat EHTs (50 nM epinephrine)
Conditions: 1-, 10-, 100-fold FTPC, n = 4–8

In the case of `CCCNCC(O)COc1ccccc1C(=O)CCc1ccccc1` (stereo not shown) [Propafenone], the “significant T2 prolongation (p<0.05 and at least 15 % vs baseline)” value is reported as “Significant T2 prolongations”.
